Literature values in paper PMC2837949.

Amino acid sequences for entries named in this document (tags omitted). Residues count along the entry.
UniProt P16382, 26-233, chain 1 of 2: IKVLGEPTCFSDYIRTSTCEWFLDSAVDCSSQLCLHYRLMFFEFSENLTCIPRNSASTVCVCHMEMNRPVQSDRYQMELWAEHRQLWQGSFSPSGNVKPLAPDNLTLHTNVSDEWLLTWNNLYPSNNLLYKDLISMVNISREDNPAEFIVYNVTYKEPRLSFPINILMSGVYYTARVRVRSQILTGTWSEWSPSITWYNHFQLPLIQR
UniProt P07750, 21-140: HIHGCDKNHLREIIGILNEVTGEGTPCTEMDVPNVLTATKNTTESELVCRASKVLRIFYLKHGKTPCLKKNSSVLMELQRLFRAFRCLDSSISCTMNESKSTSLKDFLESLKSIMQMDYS

Target: IL-4 receptor (IL-4 receptor alpha/common gamma chain) (Mus musculus) (UniProt P16382)

Kd: 110 pM
Substance: IL-4 (from UniProt P07750)
